Data on 76 compounds can be found in PubChem BioAssay AID485360 (National Center for Advancing Translational Sciences (NCATS), 2010).

Protein sequences, listed by entry. Tags and fused reporters are not part of them. Lines headed by an entry give the natural chain unless they say otherwise; changes in a name come on top.
UniProt Q9Y468: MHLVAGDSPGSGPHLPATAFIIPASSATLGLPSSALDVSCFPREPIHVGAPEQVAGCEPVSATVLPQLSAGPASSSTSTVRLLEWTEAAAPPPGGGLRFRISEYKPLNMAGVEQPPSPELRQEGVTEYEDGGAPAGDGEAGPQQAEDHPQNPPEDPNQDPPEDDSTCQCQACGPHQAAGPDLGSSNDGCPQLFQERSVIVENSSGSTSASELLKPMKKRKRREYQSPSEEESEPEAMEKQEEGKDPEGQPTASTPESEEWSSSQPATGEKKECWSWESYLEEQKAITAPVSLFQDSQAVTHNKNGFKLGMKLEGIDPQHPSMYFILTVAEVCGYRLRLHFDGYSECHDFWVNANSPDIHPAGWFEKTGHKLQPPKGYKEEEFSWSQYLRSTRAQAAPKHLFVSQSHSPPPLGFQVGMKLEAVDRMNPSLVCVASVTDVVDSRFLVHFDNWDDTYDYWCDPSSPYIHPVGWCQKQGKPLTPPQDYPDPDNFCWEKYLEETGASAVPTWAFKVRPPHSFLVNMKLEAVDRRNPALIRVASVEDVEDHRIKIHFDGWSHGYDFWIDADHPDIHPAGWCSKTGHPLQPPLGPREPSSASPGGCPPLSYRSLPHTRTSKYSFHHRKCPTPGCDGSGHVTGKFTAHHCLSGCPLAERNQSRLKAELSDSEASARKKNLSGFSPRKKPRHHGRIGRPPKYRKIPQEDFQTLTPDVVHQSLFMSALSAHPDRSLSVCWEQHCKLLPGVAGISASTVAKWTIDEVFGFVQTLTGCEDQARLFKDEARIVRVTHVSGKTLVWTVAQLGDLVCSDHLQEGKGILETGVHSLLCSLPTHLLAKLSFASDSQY

Only a part is listed here, and it is no random draw. Records with an inconclusive call do not appear. The source made the active and inactive calls. Calls follow the shape of the dose curve; as a rule, active = well fitted inhibition curve with a large enough effect; inconclusive = small, poorly fitted or top-dose-only effect; inactive = no such curve, though single readings can be large or run the other way.
% is scaled to controls: 0 for no effect and ±100 for the full control effect; potency is read from the fitted curve at half-maximal effect.

For the experiment, the target named is Lethal(3)malignant brain tumor-like protein 1 (Homo sapiens) (UniProt Q9Y468). Nature of the experiment: qHTS Assay for the Inhibitors of L3MBTL1. Also: nearly all actives have a fitted effect of over 60% in size. As to conditions: AlphaScreen L3MBTL1–H3K9me1 peptide binding; series mostly up to 57.1 µM; activity, negative = inhibition: at the top concentration. (In qHTS, concentration-response curves come from the screen itself.)
For the compound `O=P(Nc1ccccn1)(c1ccc(Br)cc1)c1ccc(Br)cc1`, the “activity, negative = inhibition” value was inactive: -1.06%. Same read-out and setting: the result for `O=P(Nc1nc2ccccc2s1)(c1ccccc1)c1ccccc1` reads inactive: -4.78%; that for `O=[As](O)(c1ccccc1)c1ccc(O)cc1`, inactive: -1.94%.

For `CC(=O)NC(SC(=S)N(C)C)C(Cl)(Cl)Cl` (stereo unspecified), the “activity, negative = inhibition” value is inactive: 8.36%. The same measure, in the same setting: the result for `O=[N+]([O-])c1ccc(O)c(/C=N/Nc2ccc([N+](=O)[O-])cc2[N+](=O)[O-])c1` reads inactive: -24.2%.

As for `C(Cc1nn[nH]n1)Cc1nn[nH]n1`, the “activity, negative = inhibition” value was inactive: 33.7%.

On to `Nc1ccc([As](=O)(O)c2ccc([N+](=O)[O-])cc2)cc1`, for which the “activity, negative = inhibition” value was inactive: 2.24%.

As for `CCOc1ccc(C2=NCC(CBr)S2)cc1` (stereo unspecified), the “activity, negative = inhibition” value is inactive: -9.14%. For the compound `Cc1ccccc1CN(C)C(=O)COC(=O)C(O)(c1ccccc1)c1ccccc1`, the “activity, negative = inhibition” value is inactive: 2.84%.

`CC(=O)Nc1ccc([As](=O)(O)O)c(O)c1`: the “activity, negative = inhibition” value was inactive: 4.48%. Same read-out and setting: under `CC(=O)Nc1ccc(Oc2c([N+](=O)[O-])cc([N+](=O)[O-])cc2[N+](=O)[O-])cc1` stands inactive: 5.87%; under `c1ccc(-c2nn[nH]n2)c(-c2nn[nH]n2)c1`, inactive: 109%; under `Cc1ccc(NP(=O)(Oc2cccc(C)c2)Oc2cccc(C)c2)nc1`, inactive: 6.26%. Still for that read-out and setting: the result for `CCOC(=O)NC(Sc1ccccc1)C(Cl)(Cl)Cl` (stereo unspecified) reads inactive: 3.92%; that for `O=C(NC1CCS(=O)(=O)C1)NP(=S)(Oc1ccccc1)Oc1ccccc1` (stereo unspecified), inactive: -0.425%.

Turning to `CCNC(=S)/N=C(\N)N[N+](=O)[O-]`, the “activity, negative = inhibition” value was inactive: 13.6%. The same measure, in the same setting: the result for `CCC(=O)N1C2C3N(C(=O)CC)C1C1N(C(=O)CC)C(C(N1C(=O)CC)N3C(=O)CC)N2C(=O)CC` reads inactive: 6.11%; that for `COC(=O)c1cc2c(s1)N=C(c1ccccc1)N(C)P2(=O)N1CCOCC1` (stereo unspecified), inactive: 3.81%.

`CC(=O)NC(SC(=S)N(CC(C)C)CC(C)C)C(Cl)(Cl)Cl` (stereo unspecified): the “activity, negative = inhibition” value was inactive: -15.7%. For `Cc1ccc(OP(=O)(Nc2ccccn2)Oc2ccc(C)cc2)cc1`, the “activity, negative = inhibition” value is inactive: -2.81%. Same read-out and setting: the result for `CC(NC(=O)COC(=O)C(O)(c1ccccc1)c1ccccc1)c1ccccc1` (stereo unspecified) reads inactive: -1.49%; that for `Cc1ccccc1OP(=O)(Nc1ccccn1)Oc1ccccc1C`, inactive: 3.4%.

With `CN(C)C(=O)Oc1noc2ccccc12`, the “activity, negative = inhibition” value is inactive: 8.14%.

Turning to `O=P(Nc1nc2ccc(Cl)cc2s1)(c1ccccc1)c1ccccc1`, the “activity, negative = inhibition” value was inactive: -12.2%. `CC(=O)Nc1ccc([As](=O)(O)O)cc1`: the “activity, negative = inhibition” value is inactive: -20.5%.

As for `O=C(O)c1ccccc1[As](=O)(O)O`, the “activity, negative = inhibition” value was inactive: 11%. The same measure, in the same setting: under `Cc1cc(SC(NC(=O)c2ccc(F)cc2)C(Cl)(Cl)Cl)ncn1` (stereo unspecified) stands inactive: 3.23%; under `CCOP(=O)(Nc1ccccc1)OCC`, inactive: 5%; under `Cc1ccc(NP(=O)(Oc2ccccc2F)Oc2ccccc2F)nc1`, inactive: 1.95%. Consider `Nc1cccc2ccc([As](=O)(O)O)cc12`, for which the Potency was active: 28.2 µM. Take `CCN(N=Nc1nonc1N)c1nonc1N`: the “activity, negative = inhibition” value was inactive: 7.37%.

As for `CN(C(=O)Cc1ccc(Cl)c(Cl)c1)[C@H]1CCCC[C@H]1N1CCCC1`, the “activity, negative = inhibition” value is inactive: -2.43%. The same measure, in the same setting: the result for `Cc1ccc(N/C(=N/P(=O)(N2CCOCC2)N2CCOCC2)N2CCOCC2)cc1` reads inactive: 7.64%. Regarding `NC(=O)c1cc([N+](=O)[O-])cc([N+](=O)[O-])c1N`, the “activity, negative = inhibition” value is inactive: 23%. Same read-out and setting: under `CN1CCCC(OC(=O)C(c2ccccc2)c2ccccc2)C1` (stereo unspecified) stands inactive: -4.34%; under `COc1ccccc1OP(=O)(Nc1ccc(C)cn1)Oc1ccccc1OC`, inactive: 6.74%; under `Cc1ccc(OP(=O)(Nc2nccs2)Oc2ccc(C)cc2)cc1`, inactive: -0.792%. `O=C(NC(Sc1ccncn1)C(Cl)(Cl)Cl)c1ccccc1` (stereo unspecified): the “activity, negative = inhibition” value is inactive: -3.13%. The same measure, in the same setting: under `Cc1c2non([O-])c-2c(C)[n+](=O)[n+]1[O-]` stands inactive: -3.49%.

Take `CC(C)CC(=O)NC(Sc1ccc(Cl)cc1)C(Cl)(Cl)Cl` (stereo unspecified): the “activity, negative = inhibition” value is inactive: 20.8%. Same read-out and setting: the result for `COc1ccc(C2=NCC(CBr)S2)cc1` (stereo unspecified) reads inactive: 25.1%.

As for `CCc1nc2c(n1)c1c(non1O)c1c2no[n+]1[O-]`, the Potency is active: 5.01 µM. Consider `CC(=O)N1C2C3N(C(C)=O)C1C1N(C(C)=O)C(C(N1C(C)=O)N3C(C)=O)N2C(C)=O`, for which the “activity, negative = inhibition” value is inactive: 1.52%. The same measure, in the same setting: the result for `CCN(/C(=N/P(=O)(N1CCOCC1)N1CCOCC1)N1CCOCC1)c1ccc(OC)cc1` reads inactive: 17.3%; that for `Nc1ccc([As](=O)(O)c2ccc(N)cc2)cc1`, inactive: 13.9%; that for `CC1CCN(C(=O)Oc2c(Cl)cc(Cl)c3cccnc23)CC1`, inactive: 7.73%.

In the case of `CC(C)=N/N=C(\N)N[N+](=O)[O-]`, the “activity, negative = inhibition” value is inactive: 34.7%.

Regarding `CN(C)C(=O)OCCc1n(C)cc[n+]1C`, the “activity, negative = inhibition” value was inactive: 11%.

For the compound `O=C(Nc1cc([As](=O)(O)O)ccc1O)c1ccccc1`, the “activity, negative = inhibition” value is inactive: -11.1%. Take `O=[N+]([O-])c1ncn(CCn2ncnc2[N+](=O)[O-])n1`: the “activity, negative = inhibition” value is inactive: 7.98%. Turning to `O=C(O)CNc1ccc([As](=O)(O)O)cc1`, the “activity, negative = inhibition” value was inactive: -0.0957%. With `O=[N+]([O-])c1cccc(NC2=NCC(CBr)S2)c1` (stereo unspecified), the “activity, negative = inhibition” value is inactive: -2.98%. Regarding `CCOC(=O)Nc1ccc([As](=O)(O)O)c(O)c1`, the “activity, negative = inhibition” value was inactive: -0.108%. Still for that read-out and setting: under `Cc1cc(SC(NC(=O)c2ccccc2)C(Cl)(Cl)Cl)nc(C(C)C)n1` (stereo unspecified) stands inactive: 7.72%.

Regarding `CCOC(=O)Nc1cccc([As](=O)(O)O)c1`, the “activity, negative = inhibition” value is inactive: -2%. Still for that read-out and setting: under `Cc1cc(SC(NC=O)C(Cl)(Cl)Cl)ncn1` (stereo unspecified) stands inactive: -12.4%; under `O=P(Nc1ccccn1)(c1cccc2ccccc12)c1cccc2ccccc12`, inactive: -10.3%.

As to `O=[N+]([O-])c1ccc(Nc2ccc(Oc3ccc([N+](=O)[O-])cc3[N+](=O)[O-])cc2)c([N+](=O)[O-])c1`, the “activity, negative = inhibition” value is inactive: -11.2%. Still for that read-out and setting: under `COP1(=S)c2c(C)nn(CCC#N)c2N=C(c2ccc(F)cc2)N1C` (stereo unspecified) stands inactive: 4.76%; under `O=C(COc1ccccc1)OC1CN2CCC1CC2` (stereo unspecified), inactive: 3.65%; under `CCOC(=O)c1ccc(NC(=O)C(C)(CCl)SC)cc1` (stereo unspecified), inactive: 0.162%.

As to `CCC(C)N(CC(C)C)C(=S)SC(NC(C)=O)C(Cl)(Cl)Cl` (stereo unspecified), the “activity, negative = inhibition” value is inactive: -35.8%.

`Cc1c2c(nc3ccccc13)SC(C(Cl)Cl)C2` (stereo unspecified): the “activity, negative = inhibition” value was inactive: 14.6%. The same measure, in the same setting: under `O=C(OC1CN2CCC1CC2)C12CC3CC(CC(C3)C1)C2` (stereo unspecified) stands inactive: -0.144%; under `Cc1cc(=O)[nH]c(N[N+](=O)[O-])n1`, inactive: 5.69%. For the compound `COc1ccc2nc(NP(=O)(c3ccccc3)c3ccccc3)sc2c1`, the “activity, negative = inhibition” value was inactive: 0.281%. The same measure, in the same setting: under `COc1cc(I)ccc1[As](=O)(O)O` stands inactive: 13.7%. `O=[As](O)(c1ccc(O)cc1)c1ccccc1O`: the “activity, negative = inhibition” value is inactive: 0.573%. The same measure, in the same setting: the result for `C[As](=O)(O)c1cccc(C(=O)O)c1` reads inactive: 6.97%; that for `Cc1ccc(OP(=O)(Nc2ccc([N+](=O)[O-])cn2)Oc2ccc(C)cc2)cc1`, inactive: -0.77%; that for `Cc1ccc2nc3c(c(C)c2c1)CC(C(Cl)Cl)S3` (stereo unspecified), inactive: -4.75%. Still for that read-out and setting: the result for `ClCCSc1nnc(-c2cccnc2)o1` reads inactive: -14.8%; that for `CC(C)c1ccc(OP(=O)(Nc2ccccn2)Oc2ccccc2F)cc1` (stereo unspecified), inactive: -5.16%.

On to `CC(C)NC(=O)NP(=O)(Oc1ccccc1)Oc1ccccc1`, for which the “activity, negative = inhibition” value was inactive: 0.669%.

Regarding `CCN(CC)C(=S)SC(NC=O)C(Cl)(Cl)Cl` (stereo unspecified), the “activity, negative = inhibition” value was inactive: 5.44%. The same measure, in the same setting: the result for `O=[N+]([O-])c1cc([N+](=O)[O-])c(-c2ccn[nH]2)s1` reads inactive: -1.1%.
